The values below come from ChEMBL document CHEMBL1123735, “6-Methyl-6-azabicyclo[3.2.1]octan-3 alpha-ol 2,2-diphenylpropionate (azaprophen), a highly potent antimuscarinic agent” (J Med Chem, 1987).

This experiment is filed under the species Cavia porcellus. Put plainly: Antimuscarinic activity was assayed for its ability to block the acetyl-choline induced contraction of the guinea pig ileum. Type of experiment: functional. The gist of the method: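 Distal guinea pig ileum segments (2.5 cm) in oxygenated Krebs–Ringer (5% CO2/95% O2), 37 °C; isometric contractions at 1-g tension. ACh concentration–response curve, maximal response set 100%; antagonist block of ACh contraction expressed as K_B or pA2 from Schild plot.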

`CN1CC2CC(OC(=O)C(C)(c3ccccc3)c3ccccc3)CC1C2` (stereo unspecified) [AZAPROPHEN] showed a Kb of 39 pM.
